## Measured affinities in a library of Ab-14 light chain variants

The target is the same throughout: PDVDLGDISGINAS, from the HR2 region of SARS-CoV-2 spike.

Parent scFv Ab-14: VH joined to VL by the linker GGGGSGGGGSGGGGS. Changes lie in the light chain CDRs alone.
VH: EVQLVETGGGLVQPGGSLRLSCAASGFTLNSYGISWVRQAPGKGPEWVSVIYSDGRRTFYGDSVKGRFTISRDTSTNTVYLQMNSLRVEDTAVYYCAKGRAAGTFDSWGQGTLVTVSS
VL: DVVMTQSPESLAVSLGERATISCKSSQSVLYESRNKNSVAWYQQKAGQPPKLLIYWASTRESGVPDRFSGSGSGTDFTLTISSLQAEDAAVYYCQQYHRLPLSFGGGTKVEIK

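The variants were designed computationally from a first round of random CDR variants and then made and measured. Several design methods are mixed in this list. Affinity was read by AlphaSeq, a pooled yeast mating assay with surface-displayed partners. Mating (16 h, 30 °C) was followed by selection of diploids and sequencing of their barcodes. A regression on co-assayed BCL2-family reference pairs converts the normalised counts of each replicate to an apparent Kd. Mating was done six times.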

Each variant is given by its three light chain CDRs, as the data file delimits them; those of the parent are KSSQSVLYESRNKNSVA, WASTRES, QQYHRLPLS. This list holds designs with at most six substitutions. Kd is apparent (estimated from mating counts) and averaged on the log scale over replicates with a signal. Smaller is tighter. "no signal" marks a missing value. The strain was present, yet no cells mated with the target were sequenced in any replicate, which points to weak or no binding. Nonspecific signal, from three strains lacking the peptide, appeared in 4% of pairings of all light chain designs, centred on 430 nM (5% of these signals below 38 nM); values are not corrected for it. The parent sequence was in this pool as ten entries: three were never detected, three once, and four in most replicates, with averages from 2.2 nM to 240 nM. The authors averaged sequences with at least three values out of six and counted those with two or fewer as poor binders. A sequence measured in both rounds can read differently, since the two assays cover different ranges.

With KLPQSMLYESRNKNAVA / NASTRES / QQYHRLPLS the result was 510 pM (6 of 6 replicates). Variant KSSISYLVESRNKNSVA / EASTRES / QQYHRLPLS gave 1.8 nM (6 of 6 replicates). With KLSQSVLSEERNKNSVA / YASTRES / QQYHRLPLS the result was 4.2 nM (6 of 6 replicates). For KSSQSKLYESRNKNSVA / NASTRES / QQYHRLPLS, the assay gave no signal (0 of 6 replicates). Variant KFSQSVLYESRVKNGVA / NASTRES / QQYHRLPLS showed 1.0 nM (6 of 6 replicates). For KSSIFYLEESRNKNSVA / EASTRES / QQYHRLPLS, the assay gave 550 pM (6 of 6 replicates). Variant KSSQSYLYESMNKNSVA / NGSTRES / QQYHRLPLS showed 1.5 nM (6 of 6 replicates). With KSHASVAYEYDNKNSVA / WASTRES / QQYHRLPLS the result was 23 nM (6 of 6 replicates). For KGSQSELYESRNKNSVA / WASCRES / QQYHRLPLS, the assay gave 210 nM (5 of 6 replicates).

Variant KHSQSVLQESRNKNSVA / DASTRES / QQYHRLPLS showed 980 pM (6 of 6 replicates). Variant ASSGGWLYESRNKNSVA / GASTRED / QQYHRLPLS gave 340 pM (6 of 6 replicates). For KSSQSVLYESDNKNSVA / NASTREK / QQYHRLPLS, the assay gave 2.7 nM (6 of 6 replicates). With KLSQSWLYESRNKNSVA / GASFRES / QQYHRLPLS the result was 5.1 nM (6 of 6 replicates). For KSSQSVLYESRNKNSVA / WASTRES / QVYHRLPLS, the assay gave no signal (0 of 6 replicates). With KLSQSVLYESRNKNNVA / HASQRES / QQYHRLPLS the result was 800 pM (6 of 6 replicates). Variant KSSQSELGCSRGKNSVA / DASTRES / QQYHRLPLS gave 1.2 nM (6 of 6 replicates). Variant KSLWSHLYESVNKNSVA / HASTRED / QQYHRLPLS gave 4.3 nM (6 of 6 replicates). Variant KSSFSVLQEMRNKNFVA / WASVRES / QQYHRLPLS gave no signal (0 of 6 replicates).

With KSSQSVLYESRNKNSVA / WASTREN / QQYHRLPLS the result was 82 nM (5 of 6 replicates). With KDCQSVLAESRNVNSVA / WASTRES / QQYHRVPLS the result was no signal (0 of 6 replicates). Variant KLQQSELYESRNKNSVA / NASTREE / QQYHRLPLS gave 810 pM (6 of 6 replicates). Variant KSSQSQLYESRNKNSIA / GASTREC / QQYHRLTLS gave 3.2 nM (6 of 6 replicates). With KSSQSVLYESRNNNSVA / WASHRMS / QQYHRLPLS the result was 32 nM (6 of 6 replicates). For KSSISGLYESRNFNSVA / EASTRES / QQYHRLPLS, the assay gave 5.2 nM (6 of 6 replicates). With KYSQSVLYESRNKNSVA / HASVRES / QQYHYLPLS the result was 4.6 nM (6 of 6 replicates). With KVLQSVLQESRNSNSVA / NASTREL / QQYHRLPLS the result was 560 pM (6 of 6 replicates). For KSSISYLYESVNKNSVA / EASTRES / QQYHRLPLM, the assay gave 950 pM (6 of 6 replicates).

Variant HQSNSVLYESRNKNSVA / NGSTREV / QQYHRLPLS showed 520 pM (6 of 6 replicates). Variant QSSPSGLTESRNKNSVA / WASTRES / QQGHRLPLR showed no signal (0 of 6 replicates). Variant KSSQSVLYESNNKNSVA / WAVTRES / QQYHRLPLS gave 20 nM (6 of 6 replicates). Variant KSSQSFCYESRNKNSVA / GASTRES / QQYHRLTLS showed 620 pM (6 of 6 replicates). For WSSQSSLYESTNKISVA / WASTRES / QQYHRLPLG, the assay gave no signal (0 of 6 replicates). With KLSQSQLYESRNKNNVA / DASTRES / QQYHRLPLS the result was 450 pM (6 of 6 replicates). Variant KLQQSQLYESRNKNSVA / NASTRCS / QQYHRLPLS gave 1.4 nM (6 of 6 replicates). With KRSQSVLYESRNKNSVA / WASTRES / QQYHRLPIS the result was 32 nM (1 of 6 replicates). For KLQQSTLYESRNKNSVA / NASQRES / QQYHRLPLS, the assay gave 2.7 nM (6 of 6 replicates).

Variant KYSQSVLYPSRNKNSVA / WASTRES / QQYHRDPES showed 2.6 µM (2 of 6 replicates). With KVSQSVFYESRNKNSVA / WASTRFS / QQYHDLPLS the result was 180 nM (6 of 6 replicates). For KSSQSVLTESRNKNSVA / HASTRES / QQYHRLPLS, the assay gave 9.6 nM (6 of 6 replicates). Variant KLPQSVLYESRNKNAVA / HASTRES / QQYHRLPLS showed 920 pM (6 of 6 replicates). With KSSISYLESSRNKNSVA / EASTRES / QQYHRLPLS the result was 1.7 nM (6 of 6 replicates).

From the list, the first 3 with no signal in any replicate:

CDR-L1,CDR-L2,CDR-L3,Kd (apparent),seen in
KSSQSKLYESRNKNSVA,NASTRES,QQYHRLPLS,no signal,0/6
KSSQSVLYESRNKNSVA,WASTRES,QVYHRLPLS,no signal,0/6
KSSFSVLQEMRNKNFVA,WASVRES,QQYHRLPLS,no signal,0/6

Values reported by Li et al. 2023, doi:10.1038/s41467-023-39022-2 (FLAb copy).